One test addresses Carbonic anhydrase 4 (Homo sapiens, UniProt P22748).
The target in another test is Carbonic anhydrase 9 (Homo sapiens, UniProt Q16790).
In test [1] the target is Carbonic anhydrase 5A, mitochondrial (Homo sapiens, UniProt P35218).

Sequences of proteins named here, by UniProt entry; tags and fusion partners are left off.
UniProt P22748, whole entry, looked up: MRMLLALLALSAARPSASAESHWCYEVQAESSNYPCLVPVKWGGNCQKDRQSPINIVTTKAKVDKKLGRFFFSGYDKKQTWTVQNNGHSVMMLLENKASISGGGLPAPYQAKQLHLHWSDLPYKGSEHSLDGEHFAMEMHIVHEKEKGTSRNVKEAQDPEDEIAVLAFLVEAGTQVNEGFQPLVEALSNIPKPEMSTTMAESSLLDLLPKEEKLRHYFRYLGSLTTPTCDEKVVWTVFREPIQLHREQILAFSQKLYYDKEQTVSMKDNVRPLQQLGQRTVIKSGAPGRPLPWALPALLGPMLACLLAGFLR
UniProt P35218, whole entry, looked up: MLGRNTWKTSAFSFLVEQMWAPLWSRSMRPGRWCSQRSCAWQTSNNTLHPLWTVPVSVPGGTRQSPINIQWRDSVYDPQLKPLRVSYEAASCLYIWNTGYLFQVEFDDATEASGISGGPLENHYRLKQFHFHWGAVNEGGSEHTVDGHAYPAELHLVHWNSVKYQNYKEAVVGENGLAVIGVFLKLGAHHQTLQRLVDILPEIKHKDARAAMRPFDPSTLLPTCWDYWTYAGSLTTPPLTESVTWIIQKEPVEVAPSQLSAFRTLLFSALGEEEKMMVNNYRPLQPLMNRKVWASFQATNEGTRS

pKi: −log10 of the molar value.

By pKi is commonly meant the negative decadic logarithm of the Ki, by convention in mol/L. Lower therefore signals a high Ki. Take `CP(=O)(O)O`: the pKi was 3.51 on Carbonic anhydrase 4, 2.90 at Carbonic anhydrase 9 and 3.96 in test [1].

The record behind these values is BindingDB's records for 15745821.
